Assay results from US6436918B1, “Steroid sulfatase inhibitors and methods for making and using the same” (Duquesne University of the Holy Ghost, priority 1997, dated 2002).

By UniProt entry, the sequences of proteins in these tests, tags left out. Residues count along the entry.
UniProt P08842, 22-583 limits assumed: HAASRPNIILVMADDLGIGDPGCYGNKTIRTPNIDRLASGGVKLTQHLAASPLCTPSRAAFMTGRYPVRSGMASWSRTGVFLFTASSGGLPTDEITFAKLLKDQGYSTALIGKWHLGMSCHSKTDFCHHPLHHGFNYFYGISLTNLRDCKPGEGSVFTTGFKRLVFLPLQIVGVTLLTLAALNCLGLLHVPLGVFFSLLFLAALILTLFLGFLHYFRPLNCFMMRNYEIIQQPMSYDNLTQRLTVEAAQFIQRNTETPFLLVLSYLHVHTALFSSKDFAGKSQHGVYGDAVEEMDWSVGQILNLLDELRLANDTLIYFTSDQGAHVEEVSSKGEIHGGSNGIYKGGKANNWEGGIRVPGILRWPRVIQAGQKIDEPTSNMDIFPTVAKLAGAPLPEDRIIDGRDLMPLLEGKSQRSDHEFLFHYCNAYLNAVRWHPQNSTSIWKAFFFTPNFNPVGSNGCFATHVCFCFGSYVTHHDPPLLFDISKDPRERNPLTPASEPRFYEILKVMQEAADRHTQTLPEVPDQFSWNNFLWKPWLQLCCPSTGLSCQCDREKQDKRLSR

Target: recombinant human estrone sulfatase (Homo sapiens, UniProt P08842)
Assay: in vitro conversion assay: inhibition of conversion of 3H-estrone sulfate to 3H-estrone by estrone sulfatase
Type: biochemical
Conditions: Table 2; 3H-estrone sulfate 3.3 nmole/L, 60 minutes at 37° C., pH 7; enzyme partially purified from transfected CHO cells

IC50 [nM]	SMILES
12	COC(=O)C1=CC[C@H]2[C@@H]3CCc4cc(OS(N)(=O)=O)ccc4[C@H]3CC[C@]12C
3.6	CCN(CC)C(=O)C1=CC[C@H]2[C@@H]3CCc4cc(OS(N)(=O)=O)ccc4[C@H]3CC[C@]12C
5	CCCNC(=O)C1=CC[C@H]2[C@@H]3CCc4cc(OS(N)(=O)=O)ccc4[C@H]3CC[C@]12C
12	CON(C)C(=O)C1=CC[C@H]2[C@@H]3CCc4cc(OS(N)(=O)=O)ccc4[C@H]3CC[C@]12C
4.8	CC(C)N(C(=O)C1=CC[C@H]2[C@@H]3CCc4cc(OS(N)(=O)=O)ccc4[C@H]3CC[C@]12C)C(C)C
12	CCOC(=O)C1=CCC2C3CCc4cc(OS(N)(=O)=O)ccc4C3CCC12C (centres unmarked)
3.2	CC(C)NC(=O)C1=CCC2C3CCc4cc(OS(N)(=O)=O)ccc4C3CCC12C (centres unmarked)

Second part, the molecule before the results:

SMILES	IC50 [nM]
CNC(=O)C1=CCC2C3CCc4cc(OS(N)(=O)=O)ccc4C3CCC12C (centres unmarked)	12
CC(C)CNC(=O)C1=CCC2C3CCc4cc(OS(N)(=O)=O)ccc4C3CCC12C (centres unmarked)	10
CCNC(=O)C1=CC[C@H]2[C@@H]3CCc4cc(OS(N)(=O)=O)ccc4[C@H]3CC[C@]12C	14
CCCN(C)C(=O)C1=CCC2C3CCc4cc(OS(N)(=O)=O)ccc4C3CCC12C (centres unmarked)	2.5
CC(C)(C)NC(=O)C1=CC[C@H]2[C@@H]3CCc4cc(OS(N)(=O)=O)ccc4[C@H]3CC[C@]12C	12
CCCOC(=O)C1=CCC2C3CCc4cc(OS(N)(=O)=O)ccc4C3CCC12C (centres unmarked)	13
CCC(C)NC(=O)C1=CCC2C3CCc4cc(OS(N)(=O)=O)ccc4C3CCC12C (centres unmarked)	3.5
